Results published in ChEMBL document CHEMBL3243964, “Biomolecules bearing the S- or SeAsMe2 function: amino acid and steroid derivatives” (J Med Chem, 1979).

Columns and labels:
[1] = tested on: L1210; assay: Carcinostatic activity against mouse L1210 cells allografted in mouse assessed as increase in survival at 25 mg/kg relative to control
[2] = tested on: L1210; assay: Carcinostatic activity against mouse L1210 cells allografted in mouse assessed as increase in life span at 50 mg/kg relative to control
[3] = tested on: L1210; assay: Carcinostatic activity against mouse L1210 cells allografted in mouse assessed as increase in life span at 25 mg/kg relative to control

SMILES	T/C [1] [%]	Activity [2] [%]	Activity [3] [%]
C[As](C)SC(C)(C)C(N)C(=O)O (stereo not given)	117	2	3
C[As](C)Sc1ncnc2[nH]cnc12	144		7
